ChEMBL document CHEMBL4190161 (Medchemcomm, 2016)
Calls of active or inactive are those of the source. The calls are words filed in the database; no cut-off is given here.

What was measured:
[1] = Antioxidant activity of the compound in phosphate buffer at pH 7.4 assessed as trolox equivalent of AAPH-induced peroxyl radical scavenging activity at 6 uM pretreated for 2 mins followed by AAPH addition measured at 2 mins interval for 108 minutes by ORAC-FL assay; format: functional
[2] = Antioxidant activity assessed as DPPH radical scavenging activity incubated for 30 mins under dark condition by spectrophotometric method; format: functional
[3] = Metal chelating activity assessed as compound-Fe2+ complex formation
[4] = Antioxidant activity assessed as trolox equivalent of hydroxyl radical scavenging activity up to 25 mg/ml measured after 60 mins by fenton reaction method; format: functional

IC50 [2]: 106 mM
Activity [3]: inactive
SMILES: CC(C)C[C@H](NC(=O)[C@@H]1CCCN1)C(=O)NCC(=O)O
Activity (umolequiv/umol) [1]: 0.03
Activity [4]: inactive
